This is an account of results in publication PMC7180617, “Biological Evaluation of 3-Benzylidenechromanones and Their Spiropyrazolines-Based Analogues” (Molecules, 2020).

The series can be described thus: Lipophilicity (logP) by RP-TLC. An excerpt:
Lipophilicity is one of the most important physicochemical properties in pharmaceutical research. It can be considered a key determinant of the pharmacokinetic properties of a drug. It is commonly measured by the partition coefficient between water and n-octanol, being expressed as logP [14]. […] Knowledge of the partition coefficient is valuable: it is frequently used in structure–activity relationship (SAR) and quantitative structure–activity relationship (QSAR) studies. The experimental lipophilicity of the synthesized compounds, viz. benzylideneflavanones, benzylidenechromanones and spiropyrazolines, was determined using RP-TLC. […] It is important to examine the relationship between structure of the compound and its lipophilicity and cytotoxicity.
The RP-TLC experiments were performed on TLC plates (5 × 10 cm) RP-18 F254S (Merck, Darmstadt, Germany). The synthesized compounds were dissolved in N,N-dimethylformamide DMF (2 mg/mL). […] A DMF-water solvent system was used as mobile phase. […] All experiments were performed at room temperature. The logP parameter was calculated using the equation from the calibration curve.

A word on the chromatographic logP: it is a lipophilicity value derived from retention on a column. Read a low chromatographic logP as a more hydrophilic compound.

Consider `O=c1c(O)c(-c2ccc(O)c(O)c2)oc2cc(O)cc(O)c12` [Quercetin, reference compound], for which the chromatographic logP was found to be 2.16.
